The structures appear in SMILES notation. The list shows a part of the results, in another mix than the full data. Calls of active or inactive are those of the source.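 Rule for the calls: active = inhibition above its plate's cutoff, the mean of tested wells on that plate plus 3 SD (cut at about 29% in these data); inactive = the rest.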

The chains behind the UniProt entries cited, without tags or fusion partners.
UniProt P32245, whole entry, looked up: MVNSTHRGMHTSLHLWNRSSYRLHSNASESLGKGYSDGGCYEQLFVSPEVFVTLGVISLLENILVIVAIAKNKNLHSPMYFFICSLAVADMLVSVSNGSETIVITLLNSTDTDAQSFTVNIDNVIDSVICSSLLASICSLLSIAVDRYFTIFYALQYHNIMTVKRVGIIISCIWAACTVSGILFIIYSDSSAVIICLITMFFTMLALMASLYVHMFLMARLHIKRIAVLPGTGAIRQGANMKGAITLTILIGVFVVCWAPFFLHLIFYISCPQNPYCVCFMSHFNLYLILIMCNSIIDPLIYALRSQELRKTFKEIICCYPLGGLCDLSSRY

In the assay the target is Melanocortin receptor 4 (Homo sapiens) (UniProt P32245). The assay is described as follows: MC4R antagonists of cAMP signaling, primary screen, cell-based, TR-FRET, antagonist arm of biased-ligand search (AID 540295).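 Note: 0% = Melanotan II alone and 100% = Melanotan II plus saturating MCL0020.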 Conditions: MC4R-expressing cells, MTII-stimulated cAMP, LANCE TR-FRET; at 6.5 µM; stronger effect = higher value.
For `CS(=O)(=O)c1cc([N+](=O)[O-])c2no[n+]([O-])c2c1`, the inhibition was inactive: 20.4%.
As for `O=P(Nc1nccs1)(Oc1ccccc1)Oc1ccccc1`, the inhibition is inactive: -0.37%.
In the case of `O=P(Nc1nccs1)(c1ccccc1)c1nc2ccccc2s1` (stereo not given), the inhibition is inactive: 18.9%.
As to `CCOP1(=S)c2c(C)nn(CCC#N)c2N=C(c2ccccc2F)N1C` (stereo not given), the inhibition was inactive: 4.9%.
`O=[N+]([O-])c1cc([N+](=O)[O-])c(-c2ccn[nH]2)s1`: the inhibition is inactive: -2.48%.
The same measure for `CC(C)NC(=O)NP(=O)(Oc1ccccc1)Oc1ccccc1`: inactive: -2.75%; for `O=C(OC1CN2CCC1CC2)c1cccc2[nH]cnc12` (stereo not given): inactive: 0.46%.
For the compound `CCN(CC)C(=S)SC(NC=O)C(Cl)(Cl)Cl` (stereo not given), the inhibition is inactive: 11.1%.
The same measure for `COC(=O)C1(C)COP(=O)(N2CCCCCC2)OC1` (stereo not given): inactive: 1.52%; for `CC(C)c1ccc(OP(=O)(Nc2ccccn2)Oc2ccccc2F)cc1` (stereo not given): inactive: -0.69%; for `ClCCSc1nnc(-c2cccnc2)o1`: inactive: 0.23%.
The same measure for `Cc1ccc2nc3c(c(C)c2c1)CC(C(Cl)Cl)S3` (stereo not given): inactive: 16.5%; for `CC(Cc1ccc(O)cc1)NCC(O)c1cc(O)cc(O)c1` (stereo not given): inactive: -6.91%.
As to `Cc1ccc(OP(=O)(Nc2ccc([N+](=O)[O-])cn2)Oc2ccc(C)cc2)cc1`, the inhibition is inactive: 4.05%.
With `O=[N+]([O-])c1ccc(-c2cc([N+](=O)[O-])c(O)c([N+](=O)[O-])c2)cc1`, the inhibition is inactive: 2.01%.
As for `COc1cc(C(=O)NCC2(N3CCOCC3)CCCCC2)ccc1OCC(C)C`, the inhibition is inactive: -8.57%.
`O=[As](O)(c1ccc(O)cc1)c1ccccc1O`: the inhibition is inactive: 11.2%.
On to `C[As](=O)(O)c1cccc(C(=O)O)c1`, for which the inhibition was inactive: -0.44%.
Consider `COc1ccc(N/C(=N/P(=O)(N2CCOCC2)N2CCOCC2)N2CCOCC2)cc1`, for which the inhibition was inactive: 9.71%.
For the compound `O=[N+]([O-])c1cc(Oc2ccc([N+](=O)[O-])cc2C(F)(F)F)cc([N+](=O)[O-])c1`, the inhibition is inactive: 3.42%.
Consider `COc1cc(I)ccc1[As](=O)(O)O`, for which the inhibition is inactive: 1.88%.
Regarding `COc1ccc2nc(NP(=O)(c3ccccc3)c3ccccc3)sc2c1`, the inhibition is inactive: 4.18%.
On to `O=P1(N(CCCl)CCCl)Nc2ccccc2N1`, for which the inhibition was inactive: 5.17%.
The same measure for `O=P1(N(CCCl)CCCl)OCCCN1CCCl` (stereo not given): inactive: 4.1%.
On to `Cc1cc(=O)[nH]c(N[N+](=O)[O-])n1`, for which the inhibition was inactive: 1.74%.
As for `O=C(OC1CN2CCC1CC2)C12CC3CC(CC(C3)C1)C2` (stereo not given), the inhibition is inactive: 5.75%.
The same measure for `Cc1c2c(nc3ccccc13)SC(C(Cl)Cl)C2` (stereo not given): inactive: -0.97%; for `CCC(C)N(CC(C)C)C(=S)SC(NC(C)=O)C(Cl)(Cl)Cl` (stereo not given): inactive: 8.16%; for `CCOC(=O)c1ccc(NC(=O)C(C)(CCl)SC)cc1` (stereo not given): inactive: 9.89%.
The same measure for `CSc1ccc(Nc2c([N+](=O)[O-])cc([N+](=O)[O-])cc2[N+](=O)[O-])cc1`: inactive: 1.5%.
On to `O=C(OC1CN2CCC1CC2)c1cccc([N+](=O)[O-])c1` (stereo not given), for which the inhibition is inactive: 8.39%.
On to `O=C(Nc1ccncc1[N+](=O)[O-])c1ccc([N+](=O)[O-])cc1[N+](=O)[O-]`, for which the inhibition is inactive: 1.88%.
Consider `O=C(COc1ccccc1)OC1CN2CCC1CC2` (stereo not given), for which the inhibition was inactive: 11.3%.
`O=C(O)C(=O)c1ccc(N(CCCl)CCCl)cc1`: the inhibition is inactive: 0.53%.
The same measure for `COP1(=S)c2c(C)nn(CCC#N)c2N=C(c2ccc(F)cc2)N1C` (stereo not given): inactive: 10.7%; for `O=[N+]([O-])c1ccc(Nc2ccc(Oc3ccc([N+](=O)[O-])cc3[N+](=O)[O-])cc2)c([N+](=O)[O-])c1`: inactive: 9.6%.
For the compound `Cc1cc(SC(NC=O)C(Cl)(Cl)Cl)ncn1` (stereo not given), the inhibition was inactive: 5.74%.
As to `O=P(Nc1ccccn1)(c1cccc2ccccc12)c1cccc2ccccc12`, the inhibition was inactive: -6.88%.
As for `CCOC(=O)Nc1cccc([As](=O)(O)O)c1`, the inhibition was inactive: 1.02%.
The same measure for `Cc1cc(SC(NC(=O)c2ccccc2)C(Cl)(Cl)Cl)nc(C(C)C)n1` (stereo not given): inactive: -3.91%; for `CCCCOc1ccc(C(=O)NCC2(N3CCCCC3)CCCCC2)cc1OC`: inactive: 2.65%.
In the case of `COP(=O)(OC)N1CC1c1ccccc1` (stereo not given), the inhibition was inactive: -2.55%.
Regarding `CC1CCNP(=O)(N(CCCl)CCCl)O1` (stereo not given), the inhibition was inactive: 7.56%.
In the case of `O=C(O)C(O)c1ccc(N(CCCl)CCCl)cc1` (stereo not given), the inhibition was inactive: -1.27%.
For `CCOC(=O)Nc1ccc([As](=O)(O)O)c(O)c1`, the inhibition was inactive: -2.18%.

Source of the values: PubChem BioAssay AID540295 (The Scripps Research Institute Molecular Screening Center, 2011).
